Measured values: patent publication US20140296255A1

The chains behind the UniProt entries cited, without tags or fusion partners.
UniProt P21397, whole entry: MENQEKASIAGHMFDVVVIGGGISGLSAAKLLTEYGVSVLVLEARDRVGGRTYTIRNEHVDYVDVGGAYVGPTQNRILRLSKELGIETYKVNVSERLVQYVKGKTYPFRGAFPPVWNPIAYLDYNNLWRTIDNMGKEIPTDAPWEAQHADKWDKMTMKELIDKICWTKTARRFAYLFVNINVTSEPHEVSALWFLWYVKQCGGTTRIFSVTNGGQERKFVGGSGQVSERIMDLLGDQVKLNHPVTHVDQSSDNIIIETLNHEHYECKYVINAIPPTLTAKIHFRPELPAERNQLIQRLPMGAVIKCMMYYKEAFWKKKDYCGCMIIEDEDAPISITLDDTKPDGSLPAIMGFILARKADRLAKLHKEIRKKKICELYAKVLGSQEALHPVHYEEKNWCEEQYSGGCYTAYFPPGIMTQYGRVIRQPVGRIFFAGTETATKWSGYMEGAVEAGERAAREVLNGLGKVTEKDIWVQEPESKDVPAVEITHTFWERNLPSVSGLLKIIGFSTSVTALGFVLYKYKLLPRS

Target: Human recombinant monoamine oxidase MAO-A (Homo sapiens, UniProt P21397)
Assay: MAO-A inhibition, kynuramine fluorescence assay
Type: biochemical
Conditions: read-out: IC50 for MAO-A; initial determination

In the case of `CN1CCN(C(=O)CN[C@H]2C[C@@H]2c2ccc(OCc3ccccc3)cc2)CC1` (relative stereo), the IC50 is reported as 15 to 20 µM.
